From US11452735B2, “Pharmaceutical combinations of organo-arsenoxide compounds and mTOR inhibitors” (NewSouth Innovations Pty Limited, priority 2015, dated 2022) come the findings set out here.

Molecules are shown by their SMILES.

The test system of assay [1] is human pancreatic, ovarian and brain tumour cells. Nature of the assay: Synergy on proliferation across the tumour cell panel (MTT, CompuSyn). It is filed as cell-based. Conditions: combination with PENAO, tumour cells in culture. The procedure:
The terms “synergy”, “synergistic”, “synergistic effect” and “synergistic combination” as used herein refers to a mixture of two or more discrete agents which, when combined, display a degree of anticancer activity, such as anti-proliferative activity or cytotoxicity etc., which is greater than the expected additive effect of said agents. […] CompuSyn software was utilised to calculate combination index (CI) values for drug combinations.
MiaPaca2, AsPC1, Panc1, Capan1, SKOV3 and U251MG cells were seeded at a density of 4×10^3 cells/well, and G89 cells at 1×10^4 cells/well, in 96-well plates. Cells were allowed to adhere for 24 h at 37° C. in a 5% CO2, 95% air atmosphere and then treated with compounds (see Table 1 and FIG. 1 for details) for 72 h. Viable cells were determined using the vital dye, MTT, according to the manufacturer's instructions.
Tumour cell lines were seeded in 96-well plates, allowed to adhere for 24 then treated with the compounds for 72 h, either as single agent or in a fixed ratio combination. Viable cells were determined using the vital dye, MTT. […] CI values are mean±SD from at least two experiments.

In another assay the test system is Panc1 cells. The assay can be described thus: MTT cell proliferation, 72 h (single agent and fixed ratio combination). It is filed as cell-based, human. Conditions: combination with PENAO, fixed ratio, Panc1, 72 h, CompuSyn. The protocol: (§1) Except otherwise mentioned, all the reagents and chemicals were from Sigma (St Louis, Mo.). […] Except otherwise mentioned, cells were from ATCC (Bethesda, Va.) and all culture media, serum, antibiotics and supplements were from Invitrogen (Mulgrave, VIC, Australia). All cultures contained 20 units/mL penicillin and 20 units/mL streptomycin. […] Panc1 (human pancreatic adenocarcinoma, Kras mutated G12D) cells were cultured in DMEM containing 2 mM glutamine. Capan1 (human pancreatic adenocarcinoma, derived from metastatic site, Kras mutated G12V) cells were cultured in IMDM containing 20% v/v foetal bovine serum and 2 mM glutamine. […]
(§2) MiaPaca2, AsPC1, Panc1, Capan1, SKOV3 and U251MG cells were seeded at a density of 4×10^3 cells/well, and G89 cells at 1×10^4 cells/well, in 96-well plates. […] Viable cells were determined using the vital dye, MTT, according to the manufacturer's instructions.
(§3) Tumour cell lines were seeded in 96-well plates, allowed to adhere for 24 then treated with the compounds for 72 h. Viable cells were determined using the vital dye, MTT. […]
(§4) Tumour cell lines were seeded in 96-well plates, allowed to adhere for 24 then treated with the compounds for 72 h, either as single agent or in a fixed ratio combination. Viable cells were determined using the vital dye, MTT. […]

Another assay relates to MiaPaca2 cells. The description is as above. In kind it is cell-based, human. Conditions: combination with PENAO, fixed ratio, MiaPaca2, 72 h, CompuSyn. The procedure: as §1, §2, §3, §4

`CO[C@H]1C[C@@H]2CC[C@@H](C)[C@@](O)(O2)C(=O)C(=O)N2CCCC[C@H]2C(=O)O[C@H]([C@H](C)C[C@@H]2CC[C@@H](OP(C)(C)=O)[C@H](OC)C2)CC(=O)[C@H](C)/C=C(\C)[C@@H](O)[C@@H](OC)C(=O)[C@H](C)C[C@H](C)/C=C/C=C/C=C/1C` [Deforolimus]: in assay [1], the “Synergistic effect with PENAO on proliferation” value is “act synergistically”. For the same compound, the “CI at ED50 (combination index)” value with Panc1 cells amounted to 0.73 ± 0.01; with MiaPaca2 cells, 0.80 ± 0.10.
